The values below are quoted from earlier work in article PMC8155967, “Investigating the Potential of Transdermal Delivery of Avanafil Using Vitamin E-TPGS Based Mixed Micelles Loaded Films” (Pharmaceutics, 2021).

As for “D-α-Tocopherol polyethylene glycol 1000 succinate [TPGS]”, the “hydrophile/lipophile balance (HLB) value” is listed as 13.2. Also, the critical micelle concentration (aqueous media) is given as 0.02 w/w%.
